The results in this text go back to PubChem BioAssay AID624115 (Johns Hopkins Ion Channel Center, 2012).

Only a part is listed here, and it is no random draw. Active and inactive are the calls of the source.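 How the source made its calls: active means calcium fluorescence ratio at least three times the spread of buffer wells, meaning a non-specific response in parental cells; inactive means the rest.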

This experiment in a line: nonspecific Ca2+ signal without MrgX1 expression – cell-based, Fluo-4 calcium flux, duplicate, agonist mode, counter-screen for MrgX1 agonist project, primary screen (AID 624115). The settings on record: parental HEK293, Fluo-4 calcium fluorescence (FDSS); at 10 µM; hits give high values. In general terms: Calcium assays in cells follow changes in intracellular calcium, usually with a dye or a luminescent sensor.
For `CN(C)C1(CNC(=O)c2ccc(Cl)c(S(N)(=O)=O)c2)CCCCC1`, the fluorescence ratio F(max-min)/F0 was inactive: 0.
